Measurements from ChEMBL document CHEMBL4325887, “Lipophilic Permeability Efficiency Reconciles the Opposing Roles of Lipophilicity in Membrane Permeability and Aqueous Solubility” (J Med Chem, 2018).

assay: Apparent permeability of compound in pH 7.4 PBS after 16 hrs by PAMPA assay; format: ADME

CC[C@H](C)[C@@H]1NC(=O)[C@H](Cc2ccc(O)cc2)N(C)C(=O)[C@H](C)NC(=O)CN(C)C(=O)[C@@H]2CCCN2C(=O)[C@@H](Cc2ccccc2)N(C)C(=O)[C@H](CC(C)C)NC1=O and CC[C@H](C)[C@@H]1NC(=O)[C@H](Cc2ccc(O)cc2)N(C)C(=O)[C@H](Cc2ccccc2)NC(=O)CN(C)C(=O)[C@@H]2CCCN2C(=O)[C@@H](Cc2ccccc2)N(C)C(=O)[C@H](CC(C)C)NC1=O [CORDYHEPTAPEPTIDE A] are the same in Papp at 16 h: 1.2 ×10⁻⁶ cm/s for the first, 1.2 ×10⁻⁶ cm/s for the second.

Compound CC[C@H](C)[C@@H]1NC(=O)[C@H](Cc2ccc(O)cc2)N(C)C(=O)[C@H](Cc2ccccc2)NC(=O)CN(C)C(=O)[C@@H]2CCCN2C(=O)[C@@H](Cc2ccccc2)N(C)C(=O)[C@H](C)NC1=O has a Papp at 16 h of 2.2 ×10⁻⁶ cm/s.
